# Reference: ChEMBL document CHEMBL4359824, “Dual FLT3 inhibitors: Against the drug resistance of acute myeloid leukemia in recent decade” (Eur J Med Chem, 2019)
# The chains behind the UniProt entries cited, without tags or fusion partners.
# UniProt P36888, whole entry: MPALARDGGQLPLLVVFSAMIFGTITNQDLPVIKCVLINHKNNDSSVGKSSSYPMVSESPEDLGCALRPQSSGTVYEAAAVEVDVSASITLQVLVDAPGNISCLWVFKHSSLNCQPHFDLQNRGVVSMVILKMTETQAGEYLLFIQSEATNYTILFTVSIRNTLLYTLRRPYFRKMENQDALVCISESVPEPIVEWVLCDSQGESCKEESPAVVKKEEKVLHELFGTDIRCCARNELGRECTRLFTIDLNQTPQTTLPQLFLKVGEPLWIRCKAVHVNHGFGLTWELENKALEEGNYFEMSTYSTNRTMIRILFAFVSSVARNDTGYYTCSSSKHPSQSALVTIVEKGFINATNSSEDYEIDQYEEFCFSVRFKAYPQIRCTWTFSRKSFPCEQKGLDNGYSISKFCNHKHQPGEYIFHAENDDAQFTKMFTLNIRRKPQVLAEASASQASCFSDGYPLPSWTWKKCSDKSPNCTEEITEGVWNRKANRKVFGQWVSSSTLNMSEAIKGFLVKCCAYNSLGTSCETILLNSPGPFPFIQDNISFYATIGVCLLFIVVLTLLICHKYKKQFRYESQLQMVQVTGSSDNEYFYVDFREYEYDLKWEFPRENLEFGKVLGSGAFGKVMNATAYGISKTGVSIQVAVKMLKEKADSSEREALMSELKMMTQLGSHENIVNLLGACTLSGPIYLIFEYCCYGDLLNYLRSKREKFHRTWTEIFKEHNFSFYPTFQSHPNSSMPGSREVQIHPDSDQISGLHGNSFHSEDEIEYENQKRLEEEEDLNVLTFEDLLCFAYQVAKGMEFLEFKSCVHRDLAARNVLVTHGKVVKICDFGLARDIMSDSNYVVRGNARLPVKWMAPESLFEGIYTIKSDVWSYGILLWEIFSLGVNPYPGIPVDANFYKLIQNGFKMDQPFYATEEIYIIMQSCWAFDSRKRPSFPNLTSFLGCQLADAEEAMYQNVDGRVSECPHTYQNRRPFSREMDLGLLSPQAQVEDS
# Molecular target: Receptor-type tyrosine-protein kinase FLT3 (Homo sapiens, UniProt P36888)
smiles,measurement,value
C1=C/COCc2cc(ccc2OCCN2CCCC2)Nc2nccc(n2)-c2cccc(c2)COC/1 [PACRITINIB],IC50,0.023 µM
